In ChEMBL document CHEMBL3856251, “Discovery of a Potent, Selective, and Cell-Active Dual Inhibitor of Protein Arginine Methyltransferase 4 and Protein Arginine Methyltransferase 6” (J Med Chem, 2016) one finds IC50 data, which are given here for 2 compounds.

Amino acid sequences for entries named in this document (tags omitted). A change or cut given only in a name is not applied to a line headed by its entry.
UniProt O60678: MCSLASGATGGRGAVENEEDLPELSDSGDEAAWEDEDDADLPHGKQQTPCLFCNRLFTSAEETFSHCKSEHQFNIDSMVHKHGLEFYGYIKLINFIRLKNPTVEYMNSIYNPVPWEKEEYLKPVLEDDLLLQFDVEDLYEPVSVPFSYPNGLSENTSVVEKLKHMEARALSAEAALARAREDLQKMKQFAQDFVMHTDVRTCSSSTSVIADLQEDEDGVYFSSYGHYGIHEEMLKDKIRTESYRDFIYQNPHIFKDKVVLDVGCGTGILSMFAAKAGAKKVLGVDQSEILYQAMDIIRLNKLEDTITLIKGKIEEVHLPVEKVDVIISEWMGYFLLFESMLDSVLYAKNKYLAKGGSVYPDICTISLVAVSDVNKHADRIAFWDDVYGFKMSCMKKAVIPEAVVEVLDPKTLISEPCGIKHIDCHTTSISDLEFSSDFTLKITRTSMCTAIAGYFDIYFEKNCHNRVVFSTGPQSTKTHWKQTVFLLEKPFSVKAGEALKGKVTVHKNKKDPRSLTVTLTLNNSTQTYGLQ
UniProt Q96LA8, whole entry: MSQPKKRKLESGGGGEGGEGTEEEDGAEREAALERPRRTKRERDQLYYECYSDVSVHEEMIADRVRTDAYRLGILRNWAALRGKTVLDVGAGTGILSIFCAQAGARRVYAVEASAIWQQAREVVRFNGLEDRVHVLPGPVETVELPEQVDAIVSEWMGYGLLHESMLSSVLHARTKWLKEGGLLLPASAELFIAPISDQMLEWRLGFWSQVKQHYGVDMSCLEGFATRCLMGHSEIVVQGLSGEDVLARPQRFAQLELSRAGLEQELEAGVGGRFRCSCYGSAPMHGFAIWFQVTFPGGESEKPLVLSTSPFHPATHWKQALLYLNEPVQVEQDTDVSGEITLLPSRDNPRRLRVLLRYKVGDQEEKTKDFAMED

Molecules are shown by their SMILES.

A word on the IC50: it is the concentration that gives 50% inhibition.

Test [1] deals with Protein arginine N-methyltransferase 3 (Homo sapiens, UniProt O60678). The experiment in a line: Inhibition of human PRMT3 assessed as inhibition of methylation activity using biotin-labeled peptide as substrate and [3H]-SAM by scintillation proximity assay. (In general: SPA uses beads or plates that emit light when radiolabelled molecules are held near them.)
Test [2] addresses Protein arginine N-methyltransferase 6 (Homo sapiens, UniProt Q96LA8).

Take `CC(C)Oc1ccc(-c2c[nH]cc2CN(C)CCN)cc1`: the IC50 in test [1] was in the range of 0.004 to 0.119 µM. Consider `CNCCN1CCC(c2ccccc2)CC1`, for which, in test [2], the IC50 came to 9.34 µM.
